From PubChem BioAssay AID1963576 (National Center for Advancing Translational Sciences (NCATS), 2024)
The list shows a part of the results, in another mix than the full data. Records with an inconclusive call do not appear. Activity calls are given as the source filed them. Calls come from the whole dose curve; as a rule, active = well fitted inhibition curve with a large enough effect; inconclusive = small, poorly fitted or top-dose-only effect; inactive = no such curve, though single readings can be large or run the other way.

Assay: Primary qHTS assay for Inhibitors of ovarian cancer metastasis using an organotypic tumor microenvironment (TME) model.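 Note: plate controls were DMSO wells for no effect and tomatine positive control wells for full effect; nearly all actives have a fitted effect of over 65% in size.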
Settings: SKOV3ip1-GFP adhesion/invasion on 3D omental model, fluorescence; at 45.8 µM (top of the series)
Excerpt: PI: Ernst Lengyel MD., Ph.D. Department of Obstetrics and Gynecology, Section of Gynecologic Oncology University of Chicago Medicine, Chicago, Illinois. The tumor microenvironment (TME) is a key determinant of metastatic efficiency. We performed a quantitative high-throughput screen (qHTS) of diverse medicinal chemistry tractable scaffolds (44,420 compounds) and pharmacologically active small molecules (386 compounds) using a layered organotypic, robust assay representing the ovarian cancer metastatic TME. This 3D model contains primary human mesothelial cells, fibroblasts, and extracellular matrix, to which fluorescently labeled ovarian cancer cells are added. Initially, 100 compounds inhibiting ovarian cancer adhesion/invasion to the 3D model in a dose-dependent manner were identified. […]
PROTOCOL TABLE (as described by Inglese J, Shamu CE and Guy RK. 2007) SEQUENCE No. (e.g., 1, 2, 3, etc.); […] […] 11; Detection; Fluorescence, excitation filter 488 nm, emission filter 509 nm. […] The number of GFP-labeled cells analyzed using a fluorescent cytometer TTP LabTech Acumen eX3 using 488 nm excitation filter and 509 nm emission filter. […] Yasgar A, Shinn P, Jadhav A, Auld DS, Michael S, Zheng W, Austin CP, Inglese J and Simeonov A, Compound Management for Quantitative High-Throughput Screening. […]

| Compound | activity change, negative = inhibition |
| --- | --- |
| CCn1c(=O)n([C@@H]2CCN(CC3CCCCCCC3)C[C@@H]2CO)c2ccccc21 | inactive: -19.7% |
